Data on 1 molecule can be found in ChEMBL document CHEMBL1144829, “2-Arylbenzoxazoles as novel cholesteryl ester transfer protein inhibitors: optimization via array synthesis” (Bioorg Med Chem Lett, 2008).

As a reminder, the pIC50 is the negative decadic logarithm of the IC50, by convention in mol/L. Read a low pIC50 as a large IC50.

Test [1] has as its target T1, Cholesteryl ester transfer protein (Homo sapiens, UniProt P11597).
T1 sequence (P11597 whole entry): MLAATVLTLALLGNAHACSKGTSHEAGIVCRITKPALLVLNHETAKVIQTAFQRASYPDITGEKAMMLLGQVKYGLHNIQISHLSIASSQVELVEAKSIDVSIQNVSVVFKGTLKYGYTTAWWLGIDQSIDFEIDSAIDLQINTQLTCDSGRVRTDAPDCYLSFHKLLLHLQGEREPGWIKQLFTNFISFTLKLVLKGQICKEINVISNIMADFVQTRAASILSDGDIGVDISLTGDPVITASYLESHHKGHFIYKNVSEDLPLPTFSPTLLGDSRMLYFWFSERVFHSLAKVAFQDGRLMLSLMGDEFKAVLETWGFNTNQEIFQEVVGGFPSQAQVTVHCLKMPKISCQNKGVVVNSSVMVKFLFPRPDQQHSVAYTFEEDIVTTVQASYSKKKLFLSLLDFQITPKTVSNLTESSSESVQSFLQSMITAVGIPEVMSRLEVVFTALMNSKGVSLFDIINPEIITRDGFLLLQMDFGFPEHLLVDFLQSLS
In words: Inhibition of human CETP by scintillation proximity assay. (In a scintillation proximity assay essentially only radioactivity close to the scintillant gives light.)

Test [2] deals with T1, Cholesteryl ester transfer protein. In words: Inhibition of CETP in human whole plasma.

pIC50: −log10 of the molar value.

For the molecule `O[C@H](CN(Cc1cccc(OC(F)(F)C(F)F)c1)c1cccc(Oc2ccccc2)c1)C(F)(F)F`, the pIC50 in test [1] was 8.52; in test [2], 7.44.
